We go through 15 molecules from patent US20230057987A1 (published 2023).

The chains are these.
B1: TCR-5 (TCR, V domains shown)
Valpha: QQLNQSPQSMFIQEGEDVSMNCTSSSIFNTWLWYKQDPGEGPVLLIALYKAGELTSNGRLTAQFGITRKDSFLNISASIPSDVGIYFCAGGYNYGQNFVFGPGTRLSVLP
Vbeta: GVTQTPKHLITATGQRVTLRCSPRSGDLSVYWYQQSLDQGLQFLIQYYNGEERAKGNILERFSAQQFPDLHSELNLSSLELGDSALYFCASSAGLAGGYEQYFGPGTRLTVT
B2: TCR-3 (TCR, V domains shown)
Valpha: QKITQTQPGMFVQEKEAVTLDCTYDTSDQSYGLFWYKQPSSGEMIFLIYQGSYDEQNATEGRYSLNFQKARKSANLVISASQLGDSAMYFCGYSNYQLIWGAGTKLIIKP
Vbeta: QVTQNPRYLITVTGKKLTVTCSQNMNHEYMSWYRQDPGLGLRQIYYSMNVEVTDKGDVPEGYKVSRKEKRNFPLILESPSPNQTSLYFCASREGTGGYQPQHFGDGTRLSIL
B3: TCR-10 (TCR, V domains shown)
Valpha: QNIDQPTEMTATEGAIVQINCTYQTSGFNGLFWYQQHAGEAPTFLSYNVLDGLEEKGRFSSFLSRSKGYSYLLLKELQMKDSASYLCAVPAPYTGTASKLTFGTGTRLQVTL
Vbeta: GVTQTPKFQVLKTGQSMTLQCAQDMNHNSMYWYRQDPGMGLRLIYYSASEGTTDKGEVPNGYNVSRLNKREFSLRLESAAPSQTSVYFCASSEGYSTYNEQFFGPGTRLTVL
B4: TCR-4 (TCR, V domains shown)
Valpha: QSVAQPEDQVNVAEGNPLTVKCTYSVSGNPYLFWYVQYPNRGLQFLLKYITGDNLVKGSYGFEAEFNKSQTSFHLKKPSALVSDSALYFCAAPRDDKIIFGKGTRLHILP
Vbeta: GVTQTPKFRVLKTGQSMTLLCAQDMNHEYMYWYRQDPGMGLRLIHYSVGEGTTAKGEVPDGYNVSRLKKQNFLLGLESAAPSQTSVYFCASSYLRTGGNEQFFGPGTRLTVL
B5: TCR-1 (TCR, V domains shown)
Valpha: QTVTQSQPEMSVQEAETVTLSCTYDTSENNYYLFWYKQPPSRQMILVIRQEAYKQQNATENRFSVNFQKAAKSFSLKISDSQLGDTAMYFCAPLGLVAGSARQLTFGSGTQLTVLP
Vbeta: GVSQDPRHKITKRGQNVTFRCDPISEHNRLYWYRQTLGQGPEFLTYFQNEAQLEKSRLLSDRFSAERPKGSFSTLEIQRTEQGDSAMYLCASSTDITSYEQYFGPGTRLTVT
B6: TCR-12 (TCR, V domains shown)
Valpha: QLLEQSPQFLSIQEGENLTVYCNSSSVFSSLQWYRQEPGEGPVLLVTVVTGGEVKKLKRLTFQFGDARKDSSLHITAAQPGDTGLYLCAGGLSDSYDKVIFGPGTSLSVIP
Vbeta: EVTQTPKHLVMGMTNKKSLKCEQHMGHRAMYWYKQKAKKPPELMFVYSYEKLSINESVPSRFSPECPNSSLLNLHLHALQPEDSALYLCASSQGVGQEYGYTFGSGTRLTVV
B7: TCR-15 (TCR, V domains shown)
Valpha: KQEVTQIPAALSVPEGENLVLNCSFTDSAIYNLQWFRQDPGKGLTSLLLIQSSQREQTSGRLNASLDKSSGRSTLYIAASQPGDSATYLCAVLLTGKLIFGQGTTLQVKP
Vbeta: GVTQTPRYLIKTRGQQVTLSCSPISGHRSVSWYQQTPGQGLQFLFEYFSETQRNKGNFPGRFSGRQFSNSRSEMNVSTLELGDSALYLCASSGGPGPSGEQYFGPGTRLTVT
B8: TCR-11 (TCR, V domains shown)
Valpha: IQVEQSPPDLILQEGANSTLRCNFSDSVNNLQWFHQNPWGQLINLFYIPSGTKQNGRLSATTVATERYSLLYISSSQTTDSGVYFCAVNTGTASKLTFGTGTRLQVTL
Vbeta: GVTQTPKFQVLKTGQSMTLQCAQDMNHNSMYWYRQDPGMGLRLIYYSASEGTTDKGEVPNGYNVSRLNKREFSLRLESAAPSQTSVYFCASSPRGQGRSYEQYFGPGTRLTVT
B9: TCR-13 (TCR, V domains shown)
Valpha: QKITQTQPGMFVQEKEAVTLDCTYDTSDQSYGLFWYKQPSSGEMIFLIYQGSYDEQNATEGRYSLNFQKARKSANLVISASQLGDSAMYFCAMSDPIMDTGRRALTFGSGTRLQVQP
Vbeta: GITQSPKYLFRKEGQNVTLSCEQNLNHDAMYWYRQDPGQGLRLIYYSQIVNDFQKGDIAEGYSVSREKKESFPLTVTSAQKNPTAFYLCASKSRGPNLADTQYFGPGTRLTVL
B10: TCR-9 (TCR, V domains shown)
Valpha: EDVEQSLFLSVREGDSSVINCTYTDSSSTYLYWYKQEPGAGLQLLTYIFSNMDMKQDQRLTVLLNKKDKHLSLRIADTQTGDSAIYFCAEKETAGNKLTFGGGTRVLVKP
Vbeta: EPEVTQTPSHQVTQMGQEVILRCVPISNHLYFYWYRQILGQKVEFLVSFYNNEISEKSEIFDDQFSVERPDGSNFTLKIRSTKLEDSAMYFCASTVQSPRTNEQFFGPGTRLTVL
B11: TCR-2 (TCR, V domains shown)
Valpha: QKITQTQPGMFVQEKEAVTLDCTYDTSDQSYGLFWYKQPSSGEMIFLIYQGSYDEQNATEGRYSLNFQKARKSANLVISASQLGDSAMYFCAMREGSDAGGTSYGKLTFGQGTILTVHP
Vbeta: GVIQSPRHLIKEKRETATLKCYPIPRHDTVYWYQQGPGQDPQFLISFYEKMQSDKGSIPDRFSAQQFSDYHSELNMSSLELGDSALYFCASSPSTGRLNTEAFFGQGTRLTVV
B12: TCR-7 (TCR, V domains shown)
Valpha: QTVTQSQPEMSVQEAETVTLSCTYDTSESDYYLFWYKQPPSRQMILVIRQEAYKQQNATENRFSVNFQKAAKSFSLKISDSQLGDAAMYFCTFRYGGATNKLIFGTGTLLAVQP
Vbeta: GVIQSPRHLIKEKRETATLKCYPIPRHDTVYWYQQGPGQDPQFLISFYEKMQSDKGSIPDRFSAQQFSDYHSELNMSSLELGDSALYFCASRGGWAETPDTQYFGPGTRLTVL
B13: TCR-8 (TCR, V domains shown)
Valpha: QKVTQAQTEISVVEKEDVTLDCVYETRDTTYYLFWYKQPPSGELVFLIRRNSFDEQNEISGRYSWNFQKSTSSFNFTITASQVVDSAVYFCALSGRGSGTYKYIFGTGTRLKVLA
Vbeta: GVIQSPRHLIKEKRETATLKCYPIPRHDTVYWYQQGPGQDPQFLISFYEKMQSDKGSIPDRFSAQQFSDYHSELNMSSLELGDSALYFCASSAGTSYNEQFFGPGTRLTVL
B14: TCR-14 (TCR, V domains shown)
Valpha: QKITQTQPGMFVQEKEAVTLDCTYDTSDQSYGLFWYKQPSSGEMIFLIYQGSYDEQNATEGRYSLNFQKARKSANLVISASQLGDSAMYFCAINGLPGSARQLTFGSGTQLTVLP
Vbeta: GVAQSPRYKIIEKRQSVAFWCNPISGHATLYWYQQILGQGPKLLIQFQNNGVVDDSQLPKDRFSAERLKGVDSTLKIQPAKLEDSAVYLCASSRFVATGTSPLHFGNGTRLTVT
B15: TCR-6 (TCR, V domains shown)
Valpha: QKEVEQDPGPLSVPEGAIVSLNCTYSNSAFQYFMWYRQYSRKGPELLMYTYSSGNKEDGRFTAQVDKSSKYISLFIRDSQPSDSATYLCAMSGNSGARDYGNNRLAFGKGNQVVVIP
Vbeta: EVTQTPKHLVMGMTNKKSLKCEQHMGHRAMYWYKQKAKKPPELMFVYSYEKLSINESVPSRFSPECPNSSLLNLHLHALQPEDSALYLCASATWEEAGPYNEQFFGPGTRLTVL

This assay deals with T1, NYESO1-001, irrelevant control peptide peptide on HLA-A*02:01 (human).
T1 peptide: SLLMWITQV
The experiment in a line: killing.
Consider B1, for which the binding result is “no recognition”.

As to B2, the binding result is “no recognition”.

As to B3, the binding result is listed as “no recognition”.

Turning to B4, the binding result was “no recognition”.

As to B5, the binding result was “no recognition”.

On to B6, for which the binding result is reported as “no recognition”.

Turning to B7, the binding result is reported as “no recognition”.

Turning to B8, the binding result is “no recognition”.

On to B9, for which the binding result is “no recognition”.

Regarding B10, the binding result is listed as “no recognition”.

As to B11, the binding result is listed as “no recognition”.

Consider B12, for which the binding result was “no recognition”.

Turning to B13, the binding result was “no recognition”.

For B14, the binding result is “no recognition”.

B15: the binding result is “no recognition”.
